Measurements as given in US7498335B2.

The chains behind the UniProt entries cited, without tags or fusion partners. Residues count along the entry.
UniProt P35968, 786-1356 limits assumed: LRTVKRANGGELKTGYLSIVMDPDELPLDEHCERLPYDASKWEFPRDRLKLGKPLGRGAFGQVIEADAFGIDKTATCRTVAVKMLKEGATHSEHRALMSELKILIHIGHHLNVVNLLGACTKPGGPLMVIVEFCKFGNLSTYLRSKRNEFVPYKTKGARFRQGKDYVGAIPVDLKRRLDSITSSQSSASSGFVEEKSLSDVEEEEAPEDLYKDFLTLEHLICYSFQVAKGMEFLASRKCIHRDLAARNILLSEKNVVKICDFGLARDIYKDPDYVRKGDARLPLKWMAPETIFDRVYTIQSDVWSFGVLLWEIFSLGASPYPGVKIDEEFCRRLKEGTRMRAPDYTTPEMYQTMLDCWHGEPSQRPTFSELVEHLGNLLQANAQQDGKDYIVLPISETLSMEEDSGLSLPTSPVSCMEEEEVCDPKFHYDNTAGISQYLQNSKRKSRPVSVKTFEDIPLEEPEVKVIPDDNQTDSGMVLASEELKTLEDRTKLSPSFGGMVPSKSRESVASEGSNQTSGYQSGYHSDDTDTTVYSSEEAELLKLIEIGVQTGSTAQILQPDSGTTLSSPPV
UniProt P17948, 781-1338 limits assumed: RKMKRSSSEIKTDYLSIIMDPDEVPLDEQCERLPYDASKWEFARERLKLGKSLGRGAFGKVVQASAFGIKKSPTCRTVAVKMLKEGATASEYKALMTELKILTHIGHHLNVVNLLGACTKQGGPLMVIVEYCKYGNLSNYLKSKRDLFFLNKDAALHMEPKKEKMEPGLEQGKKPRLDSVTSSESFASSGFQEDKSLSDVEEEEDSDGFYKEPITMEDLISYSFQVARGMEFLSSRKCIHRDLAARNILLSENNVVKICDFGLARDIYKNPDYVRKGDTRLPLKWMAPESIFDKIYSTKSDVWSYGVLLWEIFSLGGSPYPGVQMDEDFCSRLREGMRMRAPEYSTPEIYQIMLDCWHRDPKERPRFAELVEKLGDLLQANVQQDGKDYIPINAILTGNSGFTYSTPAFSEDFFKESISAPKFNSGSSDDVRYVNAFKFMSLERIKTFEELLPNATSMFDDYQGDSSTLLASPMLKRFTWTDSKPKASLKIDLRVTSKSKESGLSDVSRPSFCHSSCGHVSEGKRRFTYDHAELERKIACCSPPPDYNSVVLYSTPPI

What was measured:
[1] = target: KDR receptor (Homo sapiens, UniProt P35968); assay: In vitro receptor tyrosine kinase inhibition test (a), KDR receptor; settings: read-out: IC50 using the KDR receptor
Text: (§1) This assay determines the ability of a test compound to inhibit tyrosine kinase activity. DNA encoding VEGF or epidermal growth factor (EGF) receptor cytoplasmic domains may be obtained by total gene synthesis (Edwards M, International Biotechnology Lab 5(3), 19-25, 1987) or by cloning. These may then be expressed in a suitable expression system to obtain polypeptide with tyrosine kinase activity. […] In the case of the VEGF receptor Flt (Genbank accession number X51602), a 1.7 kb DNA fragment encoding most of the cytoplasmic domain, commencing with methionine 783 and including the termination codon, described by Shibuya et al (Oncogene, 1990, 5: 519-524), was isolated from cDNA and cloned into a baculovirus transplacement vector (for example pAcYM1 (see The Baculovirus Expression System: A Laboratory Guide, L. A King and R. D. Possee, Chapman and Hall, 1992) or pAc360 or pBlueBacHis (available from Invitrogen Corporation)). This recombinant construct was co-transfected into insect cells (for example Spodoptera frugiperda 21(Sf21)) with viral DNA (eg Pharmingen BaculoGold) to prepare recombinant baculovirus. […]

[2] = system: human umbilical vein endothelial cells (HUVEC); assay: In vitro HUVEC proliferation assay (b); settings: test (b) with VEGF as the growth factor
Protocol: This assay determines the ability of a test compound to inhibit the growth factor-stimulated proliferation of human umbilical vein endothelial cells (HUVEC).
HUVEC cells were isolated in MCDB 131 (Gibco BRL) +7.5% v/v foetal calf serum (FCS) and were plated out (at passage 2 to 8), in MCDB 131+2% v/v FCS+3 μg/ml heparin+1 μg/ml hydrocortisone, at a concentration of 1000 cells/well in 96 well plates. After a minimum of 4 hours they were dosed with the appropriate growth factor (i.e. VEGF 3 ng/ml, EGF 3 ng/ml or b-FGF 0.3 ng/ml) and compound. The cultures were then incubated for 4 days at 37° C. with 7.5% carbon dioxide. On day 4 the cultures were pulsed with 1 μCi/well of tritiated-thymidine (Amersham product TRA 61) and incubated for 4 hours. The cells were harvested using a 96-well plate harvester (Tomtek) and then assayed for incorporation of tritium with a Beta plate counter. Incorporation of radioactivity into cells, expressed as cpm, was used to measure inhibition of growth factor-stimulated cell proliferation by compounds.

[3] = target: VEGF receptor Flt (Homo sapiens, UniProt P17948); assay: In vitro receptor tyrosine kinase inhibition test (a), Flt receptor; settings: read-out: IC50 using the Flt receptor
Text: as §1

COc1cc2c(NC(=O)Nc3ccccc3Cl)ncnc2cc1OCC1CCN(C)CC1
IC50 [1]: 15 to 50 nM
IC50 [2]: 50 nM
IC50 [3]: 400 to 1200 nM
